For the assay, the target named is human SULT1A3 (Homo sapiens, UniProt P0DMM9). As to conditions: pH 7.5.

Sequences of proteins named here, by UniProt entry; tags and fusion partners are left off. A change or cut given only in a name is not applied to a line headed by its entry.
UniProt P0DMM9: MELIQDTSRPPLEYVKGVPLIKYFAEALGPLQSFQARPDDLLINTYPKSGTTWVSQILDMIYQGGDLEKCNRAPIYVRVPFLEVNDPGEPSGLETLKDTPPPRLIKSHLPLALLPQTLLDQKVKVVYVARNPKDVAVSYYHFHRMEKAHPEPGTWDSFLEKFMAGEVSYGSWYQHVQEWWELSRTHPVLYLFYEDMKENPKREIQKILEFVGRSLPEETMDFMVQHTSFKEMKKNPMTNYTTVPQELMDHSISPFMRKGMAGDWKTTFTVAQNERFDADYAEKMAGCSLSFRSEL

Consider `CN1CC[C@]23c4c5ccc(O)c4O[C@H]2[C@@H](O)C=C[C@H]3[C@H]1C5` [Morphine, morphine], for which the “Vmax, SULT1A3” value was more than 3.00 nmol/min/mg.
